Assay [1] addresses Epidermal growth factor receptor (Homo sapiens) (UniProt P00533). The settings on record: at 10 µM.
The target in assay [2] is Homeodomain-interacting protein kinase 3 (Homo sapiens) (UniProt Q9H422). The settings on record: at 1 µM.
In assay [3] the target is T1, Eukaryotic elongation factor 2 kinase (Homo sapiens) (UniProt O00418).
T1 sequence (whole entry): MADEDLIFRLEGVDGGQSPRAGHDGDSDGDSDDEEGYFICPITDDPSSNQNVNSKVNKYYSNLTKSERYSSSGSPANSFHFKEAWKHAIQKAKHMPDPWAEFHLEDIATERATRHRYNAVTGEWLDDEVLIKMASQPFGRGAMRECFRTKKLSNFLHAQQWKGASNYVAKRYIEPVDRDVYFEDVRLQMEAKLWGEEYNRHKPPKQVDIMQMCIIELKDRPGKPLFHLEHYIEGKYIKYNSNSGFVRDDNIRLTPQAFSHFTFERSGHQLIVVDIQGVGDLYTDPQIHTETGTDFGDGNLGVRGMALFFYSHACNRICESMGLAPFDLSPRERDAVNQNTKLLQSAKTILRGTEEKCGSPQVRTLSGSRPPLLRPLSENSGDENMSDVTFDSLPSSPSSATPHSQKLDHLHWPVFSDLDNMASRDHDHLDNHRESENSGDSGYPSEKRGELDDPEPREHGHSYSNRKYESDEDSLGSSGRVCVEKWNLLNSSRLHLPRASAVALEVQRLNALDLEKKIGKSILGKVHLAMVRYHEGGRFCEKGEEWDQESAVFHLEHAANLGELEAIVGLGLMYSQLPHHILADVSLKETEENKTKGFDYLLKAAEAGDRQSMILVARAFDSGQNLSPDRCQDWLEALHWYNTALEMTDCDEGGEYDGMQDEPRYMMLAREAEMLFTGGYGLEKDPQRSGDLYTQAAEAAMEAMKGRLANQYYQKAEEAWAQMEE
The settings on record: at 10 µM.

Sequences of proteins named here, by UniProt entry; tags and fusion partners are left off. A change or cut given only in a name is not applied to a line headed by its entry.
UniProt Q15303, whole entry: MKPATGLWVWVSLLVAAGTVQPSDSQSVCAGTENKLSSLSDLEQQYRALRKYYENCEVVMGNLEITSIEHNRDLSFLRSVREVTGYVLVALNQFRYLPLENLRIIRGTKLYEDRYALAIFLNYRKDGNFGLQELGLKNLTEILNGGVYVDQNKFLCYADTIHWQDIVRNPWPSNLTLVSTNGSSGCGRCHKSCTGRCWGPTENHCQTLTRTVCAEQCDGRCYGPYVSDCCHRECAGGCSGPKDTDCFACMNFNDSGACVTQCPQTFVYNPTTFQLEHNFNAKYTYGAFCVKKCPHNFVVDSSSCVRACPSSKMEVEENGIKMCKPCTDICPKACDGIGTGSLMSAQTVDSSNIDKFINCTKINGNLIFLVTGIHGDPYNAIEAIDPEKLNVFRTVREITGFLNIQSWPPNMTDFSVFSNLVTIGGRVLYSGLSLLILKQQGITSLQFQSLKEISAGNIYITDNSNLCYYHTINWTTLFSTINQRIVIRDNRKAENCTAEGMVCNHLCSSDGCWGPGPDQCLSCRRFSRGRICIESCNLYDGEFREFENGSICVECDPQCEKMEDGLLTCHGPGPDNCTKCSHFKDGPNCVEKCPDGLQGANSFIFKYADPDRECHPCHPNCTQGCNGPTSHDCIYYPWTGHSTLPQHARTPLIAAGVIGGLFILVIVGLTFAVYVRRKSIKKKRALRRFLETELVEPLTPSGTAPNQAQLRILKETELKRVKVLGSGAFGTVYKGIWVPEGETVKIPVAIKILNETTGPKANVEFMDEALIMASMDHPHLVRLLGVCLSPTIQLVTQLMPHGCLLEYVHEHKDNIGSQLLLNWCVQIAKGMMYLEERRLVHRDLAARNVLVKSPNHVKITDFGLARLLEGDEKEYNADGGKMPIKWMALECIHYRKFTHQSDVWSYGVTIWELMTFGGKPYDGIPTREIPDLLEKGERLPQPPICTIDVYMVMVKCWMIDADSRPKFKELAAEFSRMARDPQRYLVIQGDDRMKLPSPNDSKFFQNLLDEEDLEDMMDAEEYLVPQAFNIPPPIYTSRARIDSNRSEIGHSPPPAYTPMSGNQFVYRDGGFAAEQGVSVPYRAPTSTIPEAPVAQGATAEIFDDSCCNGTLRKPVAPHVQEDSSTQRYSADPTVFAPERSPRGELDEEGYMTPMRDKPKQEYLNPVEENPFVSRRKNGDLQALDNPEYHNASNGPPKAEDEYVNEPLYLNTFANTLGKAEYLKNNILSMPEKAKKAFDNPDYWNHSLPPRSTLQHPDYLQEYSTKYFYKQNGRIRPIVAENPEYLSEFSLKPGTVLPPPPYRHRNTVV
UniProt P67870, whole entry, looked up: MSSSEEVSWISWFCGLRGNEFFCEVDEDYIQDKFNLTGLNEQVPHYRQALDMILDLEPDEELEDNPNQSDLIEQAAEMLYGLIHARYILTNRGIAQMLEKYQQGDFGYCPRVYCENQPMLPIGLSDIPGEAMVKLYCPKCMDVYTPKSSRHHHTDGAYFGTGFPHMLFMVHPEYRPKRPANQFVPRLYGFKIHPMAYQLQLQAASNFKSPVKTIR
UniProt P68400, whole entry, looked up: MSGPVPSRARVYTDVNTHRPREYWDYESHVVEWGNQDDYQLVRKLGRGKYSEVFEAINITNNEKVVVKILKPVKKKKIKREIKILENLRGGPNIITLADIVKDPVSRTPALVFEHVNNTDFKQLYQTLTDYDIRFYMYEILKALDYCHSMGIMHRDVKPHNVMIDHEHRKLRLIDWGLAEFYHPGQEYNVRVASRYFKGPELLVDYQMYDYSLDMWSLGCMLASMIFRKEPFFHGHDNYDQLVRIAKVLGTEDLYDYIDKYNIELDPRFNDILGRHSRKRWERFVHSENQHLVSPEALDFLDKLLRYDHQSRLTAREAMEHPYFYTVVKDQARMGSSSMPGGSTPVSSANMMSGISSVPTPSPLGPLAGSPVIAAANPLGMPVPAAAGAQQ
UniProt P19784, whole entry, looked up: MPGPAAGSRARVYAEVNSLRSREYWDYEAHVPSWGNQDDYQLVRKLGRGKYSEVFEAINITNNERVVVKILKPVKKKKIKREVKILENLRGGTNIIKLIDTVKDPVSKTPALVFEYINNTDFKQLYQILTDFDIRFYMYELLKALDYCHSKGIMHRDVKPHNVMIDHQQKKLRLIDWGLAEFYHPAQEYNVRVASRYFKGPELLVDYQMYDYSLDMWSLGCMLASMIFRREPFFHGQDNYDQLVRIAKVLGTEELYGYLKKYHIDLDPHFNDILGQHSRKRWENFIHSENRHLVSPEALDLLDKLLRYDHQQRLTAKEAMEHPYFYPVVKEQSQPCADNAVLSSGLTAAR
UniProt P42680: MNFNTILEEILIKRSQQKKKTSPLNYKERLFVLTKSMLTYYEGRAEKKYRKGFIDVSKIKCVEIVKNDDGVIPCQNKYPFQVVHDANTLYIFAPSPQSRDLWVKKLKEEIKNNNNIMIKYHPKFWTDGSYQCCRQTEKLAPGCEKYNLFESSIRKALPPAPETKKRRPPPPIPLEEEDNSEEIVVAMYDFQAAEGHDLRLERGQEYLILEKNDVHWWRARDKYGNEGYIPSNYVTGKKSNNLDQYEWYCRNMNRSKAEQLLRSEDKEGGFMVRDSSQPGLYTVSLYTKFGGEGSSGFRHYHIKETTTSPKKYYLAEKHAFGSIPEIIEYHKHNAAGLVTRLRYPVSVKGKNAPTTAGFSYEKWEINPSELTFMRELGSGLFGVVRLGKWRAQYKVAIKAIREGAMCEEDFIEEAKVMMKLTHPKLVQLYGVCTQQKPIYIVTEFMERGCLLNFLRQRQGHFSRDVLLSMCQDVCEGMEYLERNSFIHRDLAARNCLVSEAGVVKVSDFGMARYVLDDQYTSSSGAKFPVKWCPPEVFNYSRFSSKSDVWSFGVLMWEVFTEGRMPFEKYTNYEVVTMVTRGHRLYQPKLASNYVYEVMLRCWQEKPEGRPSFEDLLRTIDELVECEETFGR
UniProt Q9Y3S1: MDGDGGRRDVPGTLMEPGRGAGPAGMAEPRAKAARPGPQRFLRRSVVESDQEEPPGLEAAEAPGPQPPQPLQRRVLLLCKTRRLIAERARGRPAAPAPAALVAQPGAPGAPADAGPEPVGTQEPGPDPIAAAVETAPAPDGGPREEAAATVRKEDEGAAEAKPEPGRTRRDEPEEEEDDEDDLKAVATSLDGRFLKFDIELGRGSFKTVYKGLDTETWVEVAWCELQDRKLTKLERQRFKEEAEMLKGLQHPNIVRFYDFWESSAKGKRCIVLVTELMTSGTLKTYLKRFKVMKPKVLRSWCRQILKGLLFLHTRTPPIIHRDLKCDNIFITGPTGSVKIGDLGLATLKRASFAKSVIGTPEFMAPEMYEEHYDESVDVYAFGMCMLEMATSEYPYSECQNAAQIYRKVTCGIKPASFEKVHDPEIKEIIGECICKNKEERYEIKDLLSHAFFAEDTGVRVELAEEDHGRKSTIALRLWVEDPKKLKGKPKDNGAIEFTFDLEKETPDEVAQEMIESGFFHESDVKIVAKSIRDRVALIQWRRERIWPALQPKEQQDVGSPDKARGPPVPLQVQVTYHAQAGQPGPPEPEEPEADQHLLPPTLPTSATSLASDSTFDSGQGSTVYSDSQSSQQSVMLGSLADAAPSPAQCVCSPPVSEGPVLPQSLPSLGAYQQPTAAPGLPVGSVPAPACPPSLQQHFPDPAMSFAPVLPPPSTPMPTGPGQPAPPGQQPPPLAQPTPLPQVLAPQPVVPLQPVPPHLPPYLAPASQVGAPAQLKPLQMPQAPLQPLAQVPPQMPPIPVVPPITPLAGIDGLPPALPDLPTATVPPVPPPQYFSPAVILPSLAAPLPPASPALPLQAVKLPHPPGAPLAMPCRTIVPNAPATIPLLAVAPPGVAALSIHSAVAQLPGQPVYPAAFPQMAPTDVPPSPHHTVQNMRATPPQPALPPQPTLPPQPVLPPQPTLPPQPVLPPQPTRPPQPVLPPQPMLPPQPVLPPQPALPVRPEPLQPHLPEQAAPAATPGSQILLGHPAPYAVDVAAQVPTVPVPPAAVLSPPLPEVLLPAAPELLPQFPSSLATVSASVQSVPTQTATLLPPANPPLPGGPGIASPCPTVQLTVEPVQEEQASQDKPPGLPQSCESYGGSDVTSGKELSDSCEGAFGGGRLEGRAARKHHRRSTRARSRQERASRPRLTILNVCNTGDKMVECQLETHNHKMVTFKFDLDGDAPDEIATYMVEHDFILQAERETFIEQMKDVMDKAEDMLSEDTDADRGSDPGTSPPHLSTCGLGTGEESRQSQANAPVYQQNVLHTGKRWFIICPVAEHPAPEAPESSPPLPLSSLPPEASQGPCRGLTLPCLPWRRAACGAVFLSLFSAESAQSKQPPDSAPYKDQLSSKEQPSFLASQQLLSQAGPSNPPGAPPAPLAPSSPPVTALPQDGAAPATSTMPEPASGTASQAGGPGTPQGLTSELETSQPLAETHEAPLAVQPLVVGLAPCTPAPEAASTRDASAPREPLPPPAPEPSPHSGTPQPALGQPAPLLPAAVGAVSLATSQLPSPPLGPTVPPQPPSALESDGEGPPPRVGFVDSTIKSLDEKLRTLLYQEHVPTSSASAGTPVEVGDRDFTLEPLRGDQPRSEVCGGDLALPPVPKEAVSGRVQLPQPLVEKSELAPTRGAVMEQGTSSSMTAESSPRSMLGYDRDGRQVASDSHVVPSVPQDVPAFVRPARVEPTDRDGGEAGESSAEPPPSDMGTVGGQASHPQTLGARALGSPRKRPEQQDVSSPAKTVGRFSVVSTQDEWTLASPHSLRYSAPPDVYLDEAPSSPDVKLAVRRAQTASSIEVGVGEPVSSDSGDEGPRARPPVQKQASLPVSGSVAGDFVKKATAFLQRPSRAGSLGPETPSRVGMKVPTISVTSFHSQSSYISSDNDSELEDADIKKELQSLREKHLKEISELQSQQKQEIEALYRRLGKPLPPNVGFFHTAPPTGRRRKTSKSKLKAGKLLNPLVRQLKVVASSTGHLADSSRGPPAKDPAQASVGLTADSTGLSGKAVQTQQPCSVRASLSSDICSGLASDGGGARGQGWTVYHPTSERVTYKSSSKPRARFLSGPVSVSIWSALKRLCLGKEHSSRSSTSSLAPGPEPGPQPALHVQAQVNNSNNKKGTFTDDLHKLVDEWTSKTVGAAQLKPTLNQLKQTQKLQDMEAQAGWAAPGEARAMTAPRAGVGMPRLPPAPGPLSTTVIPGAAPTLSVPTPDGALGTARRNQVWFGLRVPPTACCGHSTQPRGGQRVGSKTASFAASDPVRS
UniProt P07947, whole entry, looked up: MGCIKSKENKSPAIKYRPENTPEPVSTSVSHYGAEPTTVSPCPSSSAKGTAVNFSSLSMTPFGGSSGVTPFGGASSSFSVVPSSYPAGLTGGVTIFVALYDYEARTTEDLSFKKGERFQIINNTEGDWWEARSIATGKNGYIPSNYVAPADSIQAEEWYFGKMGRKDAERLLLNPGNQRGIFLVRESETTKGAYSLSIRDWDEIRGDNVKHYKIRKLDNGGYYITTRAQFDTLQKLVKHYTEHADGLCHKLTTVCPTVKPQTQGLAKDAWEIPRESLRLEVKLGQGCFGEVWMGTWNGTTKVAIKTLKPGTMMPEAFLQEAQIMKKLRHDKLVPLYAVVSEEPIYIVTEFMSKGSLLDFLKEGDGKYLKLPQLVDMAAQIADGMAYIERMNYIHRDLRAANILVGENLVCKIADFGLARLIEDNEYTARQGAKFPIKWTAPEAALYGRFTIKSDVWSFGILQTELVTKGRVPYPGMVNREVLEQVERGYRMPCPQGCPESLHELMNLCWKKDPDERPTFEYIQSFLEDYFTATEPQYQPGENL
UniProt O60285: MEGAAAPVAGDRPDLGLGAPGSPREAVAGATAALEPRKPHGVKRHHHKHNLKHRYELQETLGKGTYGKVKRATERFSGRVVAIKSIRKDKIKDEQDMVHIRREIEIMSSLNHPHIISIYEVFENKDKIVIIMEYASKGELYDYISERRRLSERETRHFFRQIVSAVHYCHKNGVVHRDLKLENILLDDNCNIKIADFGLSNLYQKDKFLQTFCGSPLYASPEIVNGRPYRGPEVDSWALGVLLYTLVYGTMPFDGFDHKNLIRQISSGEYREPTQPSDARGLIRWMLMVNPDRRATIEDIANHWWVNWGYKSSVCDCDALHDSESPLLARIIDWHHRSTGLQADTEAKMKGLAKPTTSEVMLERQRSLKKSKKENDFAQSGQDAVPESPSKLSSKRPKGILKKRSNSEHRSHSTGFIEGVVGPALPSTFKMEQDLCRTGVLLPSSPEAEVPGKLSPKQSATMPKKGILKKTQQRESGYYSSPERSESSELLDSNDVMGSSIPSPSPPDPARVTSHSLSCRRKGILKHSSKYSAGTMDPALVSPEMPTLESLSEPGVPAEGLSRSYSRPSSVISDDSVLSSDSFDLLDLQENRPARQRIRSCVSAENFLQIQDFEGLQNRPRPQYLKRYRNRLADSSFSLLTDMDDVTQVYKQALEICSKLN

Assay [4] has as its target Epidermal growth factor receptor (Homo sapiens) (UniProt P00533). The settings on record: at 1 µM.
In assay [5] the target is Receptor tyrosine-protein kinase erbB-4 (Homo sapiens) (UniProt Q15303). The settings on record: at 10 µM.
For assay [6], the target named is Ribosomal protein S6 kinase alpha-5 (Homo sapiens) (UniProt O75582). The settings on record: at 1 µM.
Assay [7] addresses T1, Eukaryotic elongation factor 2 kinase (Homo sapiens). The settings on record: at 1 µM.
Assay [8] concerns the target cAMP-dependent protein kinase catalytic subunit alpha (Homo sapiens) (UniProt P17612). The settings on record: at 10 µM.
Assay [9] concerns the target Mitogen-activated protein kinase 8 (Homo sapiens) (UniProt P45983). The settings on record: at 1 µM.
Assay [10] has the same target. The settings on record: at 10 µM.
For assay [11], the target named is Protein kinase C alpha type (Homo sapiens) (UniProt P17252). The settings on record: at 1 µM.
Assay [12] shares this target. The settings on record: at 10 µM.
The target in assay [13] is CDK9/cyclin T1 (Homo sapiens) (UniProt O60563+P50750). The settings on record: at 10 µM.
Assay [14] concerns the target Casein kinase I isoform gamma-1 (Homo sapiens) (UniProt Q9HCP0). The settings on record: at 1 µM.
For assay [15], the target named is Casein kinase II (Homo sapiens) (UniProt P67870+P68400+P19784). The settings on record: at 1 µM.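 Note: residual kinase activity expressed relative to control, in HEPES buffer at pH 7.6 with NaCl, EDTA, DTT and Triton X-100.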
For assay [16], the target named is Ephrin type-A receptor 7 (Homo sapiens) (UniProt Q15375). The settings on record: at 10 µM.
The target of assay [17] is Macrophage colony-stimulating factor 1 receptor (Homo sapiens) (UniProt P07333). The settings on record: at 10 µM.
The target of assay [18] is Macrophage-stimulating protein receptor (Homo sapiens) (UniProt Q04912). The settings on record: at 10 µM.
Assay [19] has as its target Serine/threonine-protein kinase Sgk2 (Homo sapiens) (UniProt Q9HBY8). The settings on record: at 1 µM.
Assay [20] concerns the target Serine/threonine-protein kinase SIK1 (Homo sapiens) (UniProt P57059). The settings on record: at 1 µM.
The target of assay [21] is Tyrosine-protein kinase SYK (Homo sapiens) (UniProt P43405). The settings on record: at 10 µM.
Assay [22] has as its target Mitogen-activated protein kinase kinase kinase 7 (Homo sapiens) (UniProt O43318). The settings on record: at 1 µM.
Assay [23] deals with Serine/threonine-protein kinase 10 (Homo sapiens) (UniProt O94804). The settings on record: at 1 µM.
For assay [24], the target named is Tyrosine-protein kinase Tec (Homo sapiens) (UniProt P42680). The settings on record: at 10 µM.
Assay [25] deals with Serine/threonine-protein kinase WNK2 (Homo sapiens) (UniProt Q9Y3S1). The settings on record: at 10 µM.
The target in assay [26] is Tyrosine-protein kinase Yes (Homo sapiens) (UniProt P07947). The settings on record: at 10 µM.
The target in assay [27] is RAF proto-oncogene serine/threonine-protein kinase (Homo sapiens) (UniProt P04049). The settings on record: at 1 µM.
For assay [28], the target named is Proto-oncogene tyrosine-protein kinase Src (Homo sapiens) (UniProt P12931). The settings on record: at 1 µM.
Assay [29] addresses Serine/threonine-protein kinase mTOR (Homo sapiens) (UniProt P42345). The settings on record: at 1 µM.
Assay [30] deals with Serine/threonine-protein kinase Nek6 (Homo sapiens) (UniProt Q9HC98). The settings on record: at 10 µM.
Assay [31] deals with ALK tyrosine kinase receptor (Homo sapiens) (UniProt Q9UM73). The settings on record: at 1 µM.
Assay [32] has as its target Activin receptor type-1B (Homo sapiens) (UniProt P36896). The settings on record: at 10 µM.
In assay [33] the target is NUAK family SNF1-like kinase 1 (Homo sapiens) (UniProt O60285). The settings on record: at 10 µM.
Assay [34] addresses cAMP-dependent protein kinase catalytic subunit alpha (Homo sapiens) (UniProt P17612). The settings on record: at 1 µM.
Assay [35] has as its target Protein kinase C beta type (Homo sapiens) (UniProt P05771). The settings on record: at 10 µM.

Here are results for twelve molecules from ChEMBL document CHEMBL2218924, “A broad activity screen in support of a chemogenomic map for kinase signalling research and drug discovery” (Biochem J, 2013).

For some of these results: Shown are results outside the selection of strong results, which stands elsewhere. No cut-off for these calls is given here. The entries are a selection whose mix differs from that of the whole data set.

Regarding `CC(C)[C@H](CO)Nc1nc(Nc2cccc(Cl)c2)c2ncn(C(C)C)c2n1`, the values for the residual activity in assay [1] and in assay [2] were 95% and 101%, respectively.

For the molecule `CCn1cnc2c(Nc3cccc(Cl)c3)nc(N[C@@H]3CCCC[C@@H]3N)nc21`, in [3], the residual activity is 138%.

Turning to `COc1cc2ncnc(Nc3ccc(OCc4ccccc4)cc3)c2cc1OC`, the residual activity in [4] is -3%; in assay [1] it was -3%; in assay [5], -3%; in [6], 140%; in assay [7] it was inactive: 87%; in [3], 142%. Further, the residual activity in assay [8] is 141%.

For `CCc1nc(-c2ccc(OC)cc2)[nH]c1-c1ccncc1`, the residual activity was 114% in assay [4] and 106% in assay [1].

Consider `COc1cc(OC)c(/C=C2\C(=O)Nc3ccccc32)c(OC)c1`, for which the residual activity in assay [9] was 94%; in assay [10], 84%; in assay [7], inactive: 97%; in assay [3], 99%; in assay [11], 104%; in [12], 90%.

Consider `O=C1Nc2ccc3ncsc3c2/C1=C/c1c[nH]cn1`, for which the residual activity in assay [4] was 116%; in [7], inactive: 79%; in [3], 97%.

On to `O=[N+]([O-])/C=C/c1ccc2c(c1)OCO2`, for which the residual activity is 132% in assay [4], 114% in [1], inactive: 89% in [7] and 106% in assay [3].

For `O=c1[nH]c2ccccc2n1C1CCN(Cc2ccc(-c3nc4cc5[nH]cnc5cc4nc3-c3ccccc3)cc2)CC1`, the residual activity in [4] was 105%; in assay [1], 106%; in assay [7], inactive: 105%.

For `CO[C@H]1[C@@H](OC)C[C@H](C)[C@@H](OC)C2=CC(=O)C=C(NC(=O)/C(C)=C/C=C/[C@H](OC)[C@@H](OC(N)=O)/C(C)=C/[C@@H]1C)C2=O`, the residual activity in [4] is 108%; in assay [1], 115%.

For `CC(C)(C)c1cc(C=C(C#N)C#N)cc(Br)c1O`, the residual activity in assay [4] turned out to be 118%; in assay [1], 116%; in [3] it was 118%.

`O=C1c2ccccc2-c2nc3nnnn3nc21`: the residual activity is 94% in [13]; 91% in [14]; 97% in assay [15]; 126% in assay [4]; 121% in assay [1]; 96% in assay [16]. The residual activity in assay [17] is 92%; in assay [18] it was 92%; in assay [19] it was 94%; in [20] it was 98%; in assay [21] it was 97%; in assay [22], 99%. Moreover, the residual activity in [23] was found to be 98%; in assay [24], 86%; in assay [25], 89%; in assay [26], 90%; in assay [27], 87%; in assay [28], 85%. Moreover, the residual activity in assay [7] is inactive: 95%; in assay [3], 109%; in assay [29] it was 93%; in assay [30] it was 99%; in [31], 96%; in assay [32], 91%. The residual activity in assay [33] turned out to be 93%; in assay [34], 95%; in assay [35] it was 88%.

For the molecule `COC(=O)[C@@]1(O)C[C@H]2O[C@]1(C)n1c3ccccc3c3c4c(c5c6ccccc6n2c5c31)C(=O)NC4`, the residual activity in [4] is 72%; in assay [1], 47%; in [7], inactive: 124%; in assay [3], 115%.
